Among the data in PubChem BioAssay AID588590 (National Center for Advancing Translational Sciences (NCATS), 2011) are activity, negative = inhibition values, retold here.

Amino acid sequences for entries named in this document (tags omitted).
UniProt Q9UNA4, whole entry: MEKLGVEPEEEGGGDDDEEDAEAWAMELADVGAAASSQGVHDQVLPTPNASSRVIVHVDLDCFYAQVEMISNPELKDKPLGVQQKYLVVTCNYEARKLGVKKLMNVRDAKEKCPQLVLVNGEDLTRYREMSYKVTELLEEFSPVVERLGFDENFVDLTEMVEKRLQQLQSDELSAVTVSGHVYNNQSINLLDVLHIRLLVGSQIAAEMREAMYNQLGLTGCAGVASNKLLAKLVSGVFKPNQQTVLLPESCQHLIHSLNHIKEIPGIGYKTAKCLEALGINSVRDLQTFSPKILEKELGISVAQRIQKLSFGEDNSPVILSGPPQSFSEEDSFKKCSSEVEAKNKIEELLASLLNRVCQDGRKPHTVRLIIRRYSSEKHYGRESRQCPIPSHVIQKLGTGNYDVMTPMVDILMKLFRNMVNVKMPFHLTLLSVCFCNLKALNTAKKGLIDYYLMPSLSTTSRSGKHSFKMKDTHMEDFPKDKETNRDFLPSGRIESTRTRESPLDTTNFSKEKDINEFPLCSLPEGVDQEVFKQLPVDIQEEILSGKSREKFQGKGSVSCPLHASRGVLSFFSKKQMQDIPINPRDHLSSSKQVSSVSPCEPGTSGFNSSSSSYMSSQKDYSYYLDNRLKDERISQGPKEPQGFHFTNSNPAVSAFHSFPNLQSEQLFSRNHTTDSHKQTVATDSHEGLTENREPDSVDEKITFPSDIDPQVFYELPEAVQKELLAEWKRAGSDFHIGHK

This is a selection; strong and weak results do not stand in their true shares. Inconclusive results are not listed. The source made the active and inactive calls. The call rests on the fitted dose curve; in most records, active means well fitted inhibition curve with a large enough effect; inconclusive means small, poorly fitted or top-dose-only effect, or another doubt; inactive means no such curve, though single readings can be large or run the other way.

This test deals with DNA polymerase iota (Homo sapiens) (UniProt Q9UNA4). In words: qHTS for Inhibitors of Polymerase Iota. The conditions noted are these: Pol iota fluorescent replication assay, 10 min; at 115 µM (top of the series). (qHTS replaces the single test concentration by a dilution series.)
`COc1ccccc1OP(C)(=O)Nc1c(C)cccc1C` (stereo unspecified): the activity, negative = inhibition was inactive: 13.8%.
